According to EP1976513B1 (priority 2006, dated 2007):
Read-outs that look alike come from different tables or passages of the source.

By UniProt entry, the sequences of proteins in these tests, tags left out. Residues count along the entry.
UniProt P23975, whole entry: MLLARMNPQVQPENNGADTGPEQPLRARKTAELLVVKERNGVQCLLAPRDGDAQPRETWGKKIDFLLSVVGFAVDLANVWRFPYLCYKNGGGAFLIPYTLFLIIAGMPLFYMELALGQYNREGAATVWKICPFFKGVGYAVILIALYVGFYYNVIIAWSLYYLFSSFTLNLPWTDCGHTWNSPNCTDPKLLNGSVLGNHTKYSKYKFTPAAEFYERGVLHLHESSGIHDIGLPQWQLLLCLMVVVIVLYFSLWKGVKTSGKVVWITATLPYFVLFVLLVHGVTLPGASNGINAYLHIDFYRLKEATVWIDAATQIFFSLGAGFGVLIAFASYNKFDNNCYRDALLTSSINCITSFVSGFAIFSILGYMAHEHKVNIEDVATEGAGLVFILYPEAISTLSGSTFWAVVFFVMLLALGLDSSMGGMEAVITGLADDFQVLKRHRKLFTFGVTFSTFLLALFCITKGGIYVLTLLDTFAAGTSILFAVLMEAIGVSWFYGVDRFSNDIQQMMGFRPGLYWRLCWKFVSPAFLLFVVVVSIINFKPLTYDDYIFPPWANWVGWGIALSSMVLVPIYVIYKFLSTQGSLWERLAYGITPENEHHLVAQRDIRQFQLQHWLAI
UniProt P31645, whole entry: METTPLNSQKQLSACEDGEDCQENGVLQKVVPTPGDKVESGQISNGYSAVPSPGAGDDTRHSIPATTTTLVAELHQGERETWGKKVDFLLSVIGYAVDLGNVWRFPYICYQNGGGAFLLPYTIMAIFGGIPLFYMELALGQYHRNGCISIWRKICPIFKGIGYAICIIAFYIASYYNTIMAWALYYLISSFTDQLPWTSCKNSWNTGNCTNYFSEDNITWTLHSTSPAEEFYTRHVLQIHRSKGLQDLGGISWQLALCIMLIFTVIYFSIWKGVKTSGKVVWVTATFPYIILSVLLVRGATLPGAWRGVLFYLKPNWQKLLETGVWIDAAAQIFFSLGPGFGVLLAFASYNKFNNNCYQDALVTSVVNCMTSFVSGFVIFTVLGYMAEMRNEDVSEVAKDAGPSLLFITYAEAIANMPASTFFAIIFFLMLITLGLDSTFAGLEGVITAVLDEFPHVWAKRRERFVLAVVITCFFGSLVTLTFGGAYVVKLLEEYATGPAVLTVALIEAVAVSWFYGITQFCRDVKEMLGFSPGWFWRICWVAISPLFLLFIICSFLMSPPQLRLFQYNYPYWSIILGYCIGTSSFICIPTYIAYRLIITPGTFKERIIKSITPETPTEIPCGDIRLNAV
UniProt Q01959, whole entry: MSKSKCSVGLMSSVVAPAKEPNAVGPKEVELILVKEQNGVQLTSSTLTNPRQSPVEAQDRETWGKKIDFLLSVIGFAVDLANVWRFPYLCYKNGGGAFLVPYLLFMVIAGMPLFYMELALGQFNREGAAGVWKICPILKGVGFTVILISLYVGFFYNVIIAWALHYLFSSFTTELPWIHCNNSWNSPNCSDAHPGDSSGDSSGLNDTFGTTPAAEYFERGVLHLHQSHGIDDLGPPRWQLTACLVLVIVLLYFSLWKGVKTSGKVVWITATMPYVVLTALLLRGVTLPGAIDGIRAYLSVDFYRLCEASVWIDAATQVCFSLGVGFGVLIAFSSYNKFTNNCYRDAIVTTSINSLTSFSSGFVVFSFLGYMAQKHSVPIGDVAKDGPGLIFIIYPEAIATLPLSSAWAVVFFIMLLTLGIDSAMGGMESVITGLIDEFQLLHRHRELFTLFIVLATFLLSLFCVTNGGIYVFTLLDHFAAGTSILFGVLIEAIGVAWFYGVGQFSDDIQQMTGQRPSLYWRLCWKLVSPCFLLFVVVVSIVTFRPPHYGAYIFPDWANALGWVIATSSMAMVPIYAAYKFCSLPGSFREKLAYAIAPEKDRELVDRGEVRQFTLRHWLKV
UniProt P23977, whole entry: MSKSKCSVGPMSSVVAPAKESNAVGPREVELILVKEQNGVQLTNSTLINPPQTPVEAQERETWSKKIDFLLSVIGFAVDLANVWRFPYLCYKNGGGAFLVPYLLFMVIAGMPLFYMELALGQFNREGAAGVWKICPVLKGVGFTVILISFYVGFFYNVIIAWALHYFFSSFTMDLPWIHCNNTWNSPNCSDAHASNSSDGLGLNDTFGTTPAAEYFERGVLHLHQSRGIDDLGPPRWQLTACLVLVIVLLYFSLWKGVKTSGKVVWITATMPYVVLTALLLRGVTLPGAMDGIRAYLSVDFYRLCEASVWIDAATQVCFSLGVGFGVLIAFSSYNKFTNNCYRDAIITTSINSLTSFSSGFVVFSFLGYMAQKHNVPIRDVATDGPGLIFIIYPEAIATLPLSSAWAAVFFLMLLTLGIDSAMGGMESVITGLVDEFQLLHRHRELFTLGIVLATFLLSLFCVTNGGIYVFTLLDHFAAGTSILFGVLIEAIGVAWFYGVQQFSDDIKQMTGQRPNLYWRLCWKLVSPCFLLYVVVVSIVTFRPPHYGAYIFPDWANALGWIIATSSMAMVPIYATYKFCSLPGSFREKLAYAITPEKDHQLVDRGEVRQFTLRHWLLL
UniProt Q63380, 1-617: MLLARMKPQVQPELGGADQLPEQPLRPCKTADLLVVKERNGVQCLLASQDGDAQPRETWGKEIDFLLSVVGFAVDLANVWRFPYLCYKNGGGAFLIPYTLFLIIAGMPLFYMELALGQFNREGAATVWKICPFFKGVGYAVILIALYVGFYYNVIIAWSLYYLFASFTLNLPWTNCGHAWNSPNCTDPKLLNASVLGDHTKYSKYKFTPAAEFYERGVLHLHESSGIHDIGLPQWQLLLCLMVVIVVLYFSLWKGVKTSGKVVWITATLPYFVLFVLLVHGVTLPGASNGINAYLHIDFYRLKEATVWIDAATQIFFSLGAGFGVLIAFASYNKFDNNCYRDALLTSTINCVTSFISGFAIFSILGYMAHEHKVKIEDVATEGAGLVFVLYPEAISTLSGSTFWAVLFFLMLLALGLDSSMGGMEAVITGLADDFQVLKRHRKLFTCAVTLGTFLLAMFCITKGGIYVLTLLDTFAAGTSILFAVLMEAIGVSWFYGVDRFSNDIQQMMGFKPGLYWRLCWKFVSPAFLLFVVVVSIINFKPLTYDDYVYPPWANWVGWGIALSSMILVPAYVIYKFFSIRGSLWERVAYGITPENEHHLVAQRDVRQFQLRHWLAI
UniProt Q61327, whole entry: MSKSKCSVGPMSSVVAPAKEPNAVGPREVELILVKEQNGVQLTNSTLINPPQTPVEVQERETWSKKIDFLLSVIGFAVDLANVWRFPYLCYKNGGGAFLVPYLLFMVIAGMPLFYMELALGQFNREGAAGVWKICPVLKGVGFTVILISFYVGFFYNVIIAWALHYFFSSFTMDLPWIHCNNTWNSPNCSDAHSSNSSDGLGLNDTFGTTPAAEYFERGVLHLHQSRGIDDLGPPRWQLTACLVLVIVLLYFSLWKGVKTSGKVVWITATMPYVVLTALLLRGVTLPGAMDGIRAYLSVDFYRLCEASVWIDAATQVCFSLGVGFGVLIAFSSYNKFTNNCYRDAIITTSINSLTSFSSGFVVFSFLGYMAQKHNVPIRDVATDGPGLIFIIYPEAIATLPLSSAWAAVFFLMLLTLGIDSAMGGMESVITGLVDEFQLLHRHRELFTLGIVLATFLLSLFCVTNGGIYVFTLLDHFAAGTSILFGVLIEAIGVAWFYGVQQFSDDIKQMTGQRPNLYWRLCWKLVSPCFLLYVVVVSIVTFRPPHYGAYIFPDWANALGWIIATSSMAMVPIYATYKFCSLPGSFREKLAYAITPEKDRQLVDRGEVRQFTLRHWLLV
UniProt P31652, whole entry: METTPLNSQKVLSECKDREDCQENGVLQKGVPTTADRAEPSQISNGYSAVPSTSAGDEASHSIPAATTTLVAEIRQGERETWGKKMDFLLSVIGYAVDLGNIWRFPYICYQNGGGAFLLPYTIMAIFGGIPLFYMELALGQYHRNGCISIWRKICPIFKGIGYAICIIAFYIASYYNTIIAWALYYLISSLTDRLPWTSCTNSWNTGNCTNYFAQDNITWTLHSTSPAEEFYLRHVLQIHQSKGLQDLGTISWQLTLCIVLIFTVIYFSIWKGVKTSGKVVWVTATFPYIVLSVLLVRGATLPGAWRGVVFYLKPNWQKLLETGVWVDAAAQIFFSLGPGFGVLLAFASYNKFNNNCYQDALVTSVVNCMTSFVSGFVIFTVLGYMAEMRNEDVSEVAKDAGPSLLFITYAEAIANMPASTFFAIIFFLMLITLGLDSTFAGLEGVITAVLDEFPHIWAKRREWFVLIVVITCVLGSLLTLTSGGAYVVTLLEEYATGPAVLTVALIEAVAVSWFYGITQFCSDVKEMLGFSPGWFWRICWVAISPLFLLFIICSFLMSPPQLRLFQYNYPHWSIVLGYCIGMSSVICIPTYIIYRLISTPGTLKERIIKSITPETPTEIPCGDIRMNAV

Tests used:
[1] = target: human norepinephrine reuptake transporter (Homo sapiens, UniProt P23975); assay: cell-based
[2] = target: human serotonin reuptake transporter (Homo sapiens, UniProt P31645); assay: cell-based
[3] = target: T1, human dopamine reuptake transporter (Homo sapiens, UniProt Q01959); assay: cell-based; conditions: Human IC50 (nM) hDAT
T1 construct: expressed in transfected cells; host or cells: CHO-K1 or HEK293

dopamine transporter = target: T2, dopamine transporter (Rattus norvegicus, UniProt P23977); assay: biochemical; conditions: Rat IC50 (nM) rDAT, rat synaptosomes, dopamine transporter (DAT)
T2 construct: synaptosomes isolated in a 0.32 M sucrose buffer from a male Wistar rat striatum; from tissue; host or cells: male Wistar rat striatum synaptosomes

[4] = target: T3, norepinephrine transporter (Rattus norvegicus, UniProt Q63380); assay: biochemical; conditions: Rat IC50 (nM) rNET, rat synaptosomes, norepinephrine transporter (NET)
T3 construct: synaptosomes isolated in a 0.32 M sucrose buffer from a male Wistar rat hypothalamus; from tissue; host or cells: male Wistar rat hypothalamus synaptosomes

[5] = target: T4, DA Transporter (DAT) Sites in Mouse Brain (Mus musculus, UniProt Q61327); assay: Ex vivo [3H] WIN 35428 binding after oral dosing; set-up: species or system C57BL/6 mice; conditions: 1 mg/kg, mice sacrificed 60 minutes after treatment, striatum
T4 construct: Striatum was used to determine occupancy of DA transporter sites; from tissue; host or cells: C57BL/6 mouse striatum homogenate

serotonin transporter = target: T5, serotonin transporter (Rattus norvegicus, UniProt P31652); assay: biochemical; conditions: Rat IC50 (nM) rSERT, rat synaptosomes, serotonin transporter (SERT)
T5 construct: synaptosomes isolated in a 0.32M sucrose buffer from a male Wistar rat cortex; from tissue; host or cells: male Wistar rat cortex synaptosomes

mice = assay: Mouse tail suspension test; assay type: in vivo; conditions: PO, 30-60 minutes before the test, 5 minutes recording
Protocol: The method, which detects antidepressant activity, follows that described by Stéru et al (Psychopharmacology, 85, 367-370, 1985). Rodents, suspended by the tail, rapidly become immobile. Antidepressants decrease the duration of immobility.
Ten to twelve mice were tested in each group. The test was performed blind. Compounds were typically evaluated at 3 doses (1-30 mg/kg), administered orally one time: 30-60 minutes before the test, and compared with a vehicle control group. Desipramine (100 mg/kg), administered under the same experimental conditions, was used as the positive reference substance.
Data were analyzed by one way analysis of variance (ANOVA) followed by post-hoc comparisons where appropriate. An effect was considered significant if p < 0.05. Data are represented as the mean and standard error to the mean (s.e.m).

Rats = assay: Rat forced swim test; assay type: in vivo; conditions: PO, 24 hours and 30-60 minutes before the 5 minute test
Protocol: Rats forced to swim in a situation from which they cannot escape rapidly become immobile. Antidepressants decrease the duration of immobility. […] Selective NE reuptake inhibitors decrease immobility by increasing climbing behaviors whereas selective 5-HT reuptake inhibitors decrease immobility by increasing swimming behaviors.
Rats were individually placed in a cylinder (Height = 40 cm; Diameter = 20 cm) containing 22 cm water (25°C) for 15 minutes on the first day of the experiment (Session 1) and were then put back in the water 24 hours later for a 5 minute test (Session 2). The sessions were videotaped and duration of immobility as well as swimming and climbing behaviors during the 5 minute test were measured. Twelve rats were tested in each group. The test was performed blind. Compounds were typically evaluated at 3 doses (1-30 mg/kg), administered orally 2 times: 24 hours and 30-60 minutes before the test (Session 2), and compared with a vehicle control group. Desipramine (20 mg/kg i.p.), administered under the same experimental conditions, was used as the positive reference substance.
Data were analyzed by one way analysis of variance (ANOVA) followed by post-hoc comparisons where appropriate. An effect will be considered significant if p < 0.05. Data are represented as the mean and standard error to the mean (s.e.m).

## CC(N)C1(c2ccc(Cl)c(Cl)c2)CCCCC1 (single isomer, unassigned) [Compound 2E2, 1-(1-(3,4-dichlorophenyl)cyclohexyl)ethanamine]
[1]; Human IC50 (nM) hNET
  IC50: 1040 nM

## CN(C)CC1(c2ccc(Cl)c(Cl)c2)CCCC(F)(F)C1 (single isomer, unassigned) [206 E1, 1-(1-(3,4-dichlorophenyl)-3,3-difluorocyclohexyl)-N,N-dimethylmethanamine]
[2]; Human IC50 (nM) hSERT
  IC50: 72 nM

## CC(C)CC(N)C1(c2ccc(Cl)cc2)CCCCC1 (single isomer, unassigned) [21 E2, 1-(1-(4-chlorophenyl)cyclohexyl)-3-methylbutan-1-amine]
[3]
  IC50: 64 nM

## CNCC1(c2ccc(Cl)c(Cl)c2)CCC(C)(O)CC1 (centres unmarked) [Compound 276, 4-(3,4-dichlorophenyl)-1-methyl-4-((methylamino)methyl)cyclohexanol]
Dopamine transporter
  IC50: 190 nM
[4]
  IC50: 17 nM
[5]
  Mean Specific Binding (dpm) ± S.E.M., DAT: 18155 ± 2275 dpm
Serotonin transporter
  IC50: 360 nM
mice; 3 mg/kg
  Mouse Tail Suspension Mean Immobility Time ± S.E.M.: 182.0 ± 4.2
mice; 10 mg/kg
  Mouse Tail Suspension Mean Immobility Time ± S.E.M.: 164.1 ± 5.7
mice; 30 mg/kg
  Mouse Tail Suspension Mean Immobility Time ± S.E.M.: 160.2 ± 7.2

## CN(C)CC1(c2ccc(Cl)c(Cl)c2)CCC(C)(O)CC1 (centres unmarked) [Compound 277, 4-(3,4-dichlorophenyl)-4-((dimethylamino)methyl)-1-methylcyclohexanol]
[4]
  IC50: 2.7 nM
Rats; 3 mg/kg
  Rat Forced Swim (Means ± S.E.M.) Climbing: 9.0 ± 1.2
  Rat Forced Swim (Means ± S.E.M.) Immobility: 50.4 ± 1.1
  Rat Forced Swim (Means ± S.E.M.) Swimming: 0.8 ± 0.3
Rats; 10 mg/kg
  Rat Forced Swim (Means ± S.E.M.) Climbing: 13.8 ± 2.3
  Rat Forced Swim (Means ± S.E.M.) Immobility: 42.5 ± 2.6
  Rat Forced Swim (Means ± S.E.M.) Swimming: 3.7 ± 0.9
Rats; 30 mg/kg
  Rat Forced Swim (Means ± S.E.M.) Climbing: 35.6 ± 5.2
  Rat Forced Swim (Means ± S.E.M.) Immobility: 14.6 ± 3.5
  Rat Forced Swim (Means ± S.E.M.) Swimming: 6.1 ± 1.4
mice; 3 mg/kg
  Mouse Tail Suspension Mean Immobility Time ± S.E.M.: 182.3 ± 8.1
mice; 10 mg/kg
  Mouse Tail Suspension Mean Immobility Time ± S.E.M.: 164.4 ± 6.8
mice; 30 mg/kg
  Mouse Tail Suspension Mean Immobility Time ± S.E.M.: 147.1 ± 3.1

## CC(N(C)C)C1(c2ccc3ccccc3c2)CCCCC1 (single isomer, unassigned) [56 E2, N,N-dimethyl-1-(1-(naphthalen-2-yl)cyclohexyl)ethanamine]
[1]; Human IC50 (nM) hNET
  IC50: 468 nM
[2]; Human IC50 (nM) hSERT
  IC50: 63 nM

## CN(C)C[C@@]1(c2ccc3ccccc3c2)CC=CCC1 [Compound 293, N,N-dimethyl(1-(naphthalen-2-yl)cyclohex-3-enyl)methanamine]
[1]; read-out: Human IC50 (nM) hNET
  IC50: 33 nM
[2]; read-out: Human IC50 (nM) hSERT
  IC50: 42 nM

## CNCC1(c2ccc(Cl)c(Cl)c2)CCCCC1.Cl [Compound 75, 1-(1-(3,4-dichlorophenyl)cyclohexyl)-N-methylmethanamine (hydrochloride)]
Serotonin transporter
  IC50: 110 nM

## CC(N)C1(c2ccc(Cl)c(Cl)c2)CCCCC1 (single isomer, unassigned) [2 E1, 1-(1-(3,4-dichlorophenyl)cyclohexyl)ethanamine]
[1]; Human IC50 (nM) hNET
  IC50: 167 nM

## CC(N(C)C)C1(c2ccc3ccccc3c2)CCCCC1 (single isomer, unassigned) [56 E1, N,N-dimethyl-1-(1-(naphthalen-2-yl)cyclohexyl)ethanamine]
[1]; Human IC50 (nM) hNET
  IC50: 21 nM
[2]; Human IC50 (nM) hSERT
  IC50: < 1 nM

## CC(N)C1(c2ccc(OC(F)(F)F)cc2)CCCCC1 (single isomer, unassigned) [19 E2, 1-(1-(4-(trifluoromethoxy)phenyl)cyclohexyl)ethanamine]
[1]; Human IC50 (nM) hNET
  IC50: 4030 nM

## CC(N)C1(c2ccc(OC(F)(F)F)cc2)CCCCC1 (single isomer, unassigned) [19 E1, 1-(1-(4-(trifluoromethoxy)phenyl)cyclohexyl)ethanamine]
[1]; Human IC50 (nM) hNET
  IC50: 1900 nM

## CC(N)C1(c2ccc(OC(F)(F)F)cc2)CCCCC1 (centres unmarked) [Compound 19, 1-(1-(4-(trifluoromethoxy)phenyl)cyclohexyl)ethanamine]
[1]; Human IC50 (nM) hNET
  IC50: 3180 nM

## CNCC1(c2ccc(Cl)c(Cl)c2)CCCC(F)(F)C1 (single isomer, unassigned) [205 E2, 1-(1-(3,4-dichlorophenyl)-3,3-difluorocyclohexyl)-N-methylmethanamine]
[3]
  IC50: 12 nM

## CC(N(C)C)C1(c2ccc3ccccc3c2)CCCCC1 (racemic) [Compound 55, N,N-dimethyl-1-(1-(naphthalen-2-yl)cyclohexyl)ethanamine]
[1]; Human IC50 (nM) hNET
  IC50: 61 nM

## CC(C)CC(N(C)C)C1(c2ccc(Cl)c(Cl)c2)CCCCC1 (racemic) [Compound 46, 1-(1-(3,4-dichlorophenyl)cyclohexyl)-N,N,3-trimethylbutan-1-amine]
[1]; Human IC50 (nM) hNET
  IC50: > 10000 nM

## CC(C)CC(N)C1(c2ccc(Cl)cc2)CCCCC1 (centres unmarked) [Compound 21, 1-(1-(4-chlorophenyl)cyclohexyl)-3-methylbutan-1-amine]
[3]
  IC50: 43 nM
